AlphaSeq binding of Ab-14 light chain variants to a spike HR2 peptide

The measurements come from Li et al. 2023 (doi:10.1038/s41467-023-39022-2) through the FLAb antibody collection.

Binding partner: SARS-CoV-2 spike HR2 peptide, sequence PDVDLGDISGINAS.

Parent: Ab-14, a human scFv built as VH, three GGGGS repeats, VL. Only the CDRs of the light chain vary.
VH: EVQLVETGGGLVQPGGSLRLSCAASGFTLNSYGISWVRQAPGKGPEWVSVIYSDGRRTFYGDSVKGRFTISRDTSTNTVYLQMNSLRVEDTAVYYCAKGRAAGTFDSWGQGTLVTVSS
VL: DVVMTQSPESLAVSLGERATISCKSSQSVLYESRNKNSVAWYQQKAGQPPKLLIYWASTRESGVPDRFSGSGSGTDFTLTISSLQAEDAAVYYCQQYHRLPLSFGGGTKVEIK

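The starting antibody came from a phage panning campaign against this peptide. Designed CDR sequences, proposed from the first random library and measured here. Their group label is 14L_En_Gen (En: ensemble of fine-tuned language models; Gen: genetic algorithm). AlphaSeq pools MATa yeast showing the antibodies with MATalpha yeast showing the peptide. Pairs that bind mate more often; barcode pairs of the diploids are counted by sequencing. Scores were corrected for input abundance and mapped to Kd with protein pairs of known affinity run in the same pool. There are six technical replicates.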

The parent's light chain CDRs are KSSQSVLYESRNKNSVA, WASTRES, QQYHRLPLS; each variant's own CDRs replace them letter for letter.
Values are log10 of the apparent Kd in nM; lower means stronger binding.
A mean of the replicates is given; it leaves out those without a signal.
"n.d." marks a missing value. The strain was present, yet no cells mated with the target were sequenced in that replicate, which points to weak or no binding.
The range of this assay differs from that of the first round, and the authors advise against merging the two.
Three control strains display no target. For all light chain designs, 4% of the pairings with them gave a signal, with a median of 2.64 and one signal in twenty below 1.59, so weak values seen in few replicates may be background. The control count says in how many pairings with the empty strains this scFv gave a signal, with their mean in brackets.
The authors averaged sequences with at least three values out of six and counted those with two or fewer as poor binders.

| # | CDR-L1 | CDR-L2 | CDR-L3 | log10 Kd, replicates | mean, log10 nM | signal with controls |
|---|---|---|---|---|---|---|
| 1 | MVTQMAMTGMMSKRSVA | NAEMREH | QQYHRLPLI | n.d. n.d. 1.55 1.92 1.84 1.39 | 1.67 | 0/18 |
| 2 | TISQVMNTLTRNTNNVA | DLQNRED | QQYFRLPLS | n.d. n.d. n.d. n.d. n.d. n.d. | n.d. | 0/18 |
| 3 | KIGMTLNTLLHQKNNVA | DLVTREN | QQYSRLPLS | 0.79 0.47 0.72 0.37 2.14 1.66 | 1.03 | 3/18 (2.23) |
| 4 | HMSMLTLQGMRQRNSVA | QMTTRVN | QQYDRLPLM | 0.47 0.51 0.92 0.50 0.84 0.72 | 0.66 | 0/18 |
| 5 | KVSEFMKGLTMRKDSIA | DNNTRGA | QQYDRLPLS | 0.58 0.72 1.04 0.72 0.63 1.04 | 0.79 | 1/18 (1.62) |
| 6 | KLSQLTGHNKMVKNNVA | EMVTREN | QQYNRLPLS | 0.23 0.38 0.43 0.00 -0.14 0.29 | 0.20 | 0/18 |
| 7 | MISQLYNMGSFAINSVA | QAQTRNE | QQYDRLPLT | n.d. n.d. n.d. 2.71 n.d. n.d. | 2.71 | 0/18 |
| 8 | KFSQAVNTMSVSNSAVA | EMSTRPE | QQYNRLPLA | 0.99 0.75 0.74 0.60 0.63 0.71 | 0.73 | 0/18 |
| 9 | TLYGLTNSMSKNKDNVA | EMSTREA | QQYDRLPLA | 0.64 0.86 0.92 1.59 0.82 0.54 | 0.90 | 1/18 (1.70) |
| 10 | SIGGVMKSQSAHRNSVA | DMTNREQ | QQYDRLPLS | 0.20 -0.18 0.12 0.61 0.04 0.28 | 0.18 | 0/18 |
| 11 | TITQFMDNLAKNRNNVA | DTSTLGQ | QSYDRLPLS | 0.78 0.79 0.88 1.08 1.15 0.85 | 0.92 | 0/18 |
| 12 | MISQVMGLNNMYKKSVA | QAEERVT | QQYDHLPLS | 0.30 0.29 0.10 0.13 0.04 0.69 | 0.26 | 0/18 |
| 13 | QIYQAMHTLSQNKDNVA | DVNERGQ | QQYYRLPLS | -0.27 -0.41 -0.74 -0.35 -0.31 -0.30 | -0.40 | 0/18 |
| 14 | TLSQMSGLEAVKHNNVA | ENSTREK | QQYDRLPLA | n.d. 5.53 3.20 n.d. 2.70 n.d. | 3.81 | 2/18 (3.44) |
| 15 | MVTQMAMSGMTNKRSVA | NAETREH | QQYNRLPLI | 0.11 0.09 0.32 0.36 -0.01 0.66 | 0.26 | 1/18 (1.78) |
| 16 | HMSALTLGGVRARNSVA | QMTTREN | QQYDRLPLA | 0.43 0.79 -0.05 0.74 0.79 1.32 | 0.67 | 0/18 |
| 17 | IIAQLMYWGNKSANSIA | QAEERLN | QQYHHLPLS | n.d. n.d. n.d. n.d. n.d. n.d. | n.d. | 0/18 |
| 18 | TISQLMNMGQFAINSVA | QASIRNE | QQYDRLPLI | 1.97 2.64 3.16 1.59 1.59 n.d. | 2.19 | 1/18 (2.19) |
| 19 | KLYDMAALTMNNIRNVA | DNSTREE | QQYHRLPLS | 0.82 0.83 1.04 0.92 1.37 1.01 | 1.00 | 0/18 |
| 20 | KISMTSENQLKNRNSVA | ELVTRMS | QQYNRLPLS | 0.66 0.34 0.48 0.29 0.59 0.67 | 0.51 | 0/18 |
| 21 | MISQLYNMGQFAINSVA | QASIRNQ | QQYDRLPLI | 1.74 1.49 1.35 0.96 1.81 1.73 | 1.51 | 0/18 |
| 22 | MVYQAAMMGGVARNSIA | NATMRPD | QQYHRLPLI | 0.54 0.41 0.27 0.13 0.24 0.31 | 0.32 | 2/18 (2.29) |
| 23 | KLSMVTGHMSLAKNNVA | EMVTREK | QQYNRLPLS | 0.88 0.41 0.74 0.43 0.65 0.65 | 0.63 | 1/18 (3.67) |
| 24 | KLTMISGLEKVSTSNVA | EMETREE | QQYNRLPLS | 2.21 1.20 1.63 1.47 3.94 1.18 | 1.94 | 0/18 |
| 25 | IVSQLMIWGMHVKNSIA | EAELRLN | QQYDRLPLF | n.d. n.d. n.d. n.d. n.d. n.d. | n.d. | 0/18 |
| 26 | KLSMTTEMEHKNRNSVA | ELVTRLN | QQYNRLPLS | n.d. n.d. n.d. n.d. n.d. n.d. | n.d. | 0/18 |
| 27 | KISQMVKVGITHNNSIA | EETTRAK | QQYHRLPLA | 1.59 1.61 1.89 2.03 2.13 2.31 | 1.92 | 0/18 |
| 28 | HMSALTLMGSRNRNSVA | QMTTREN | QQYDRLPLS | n.d. n.d. 1.57 1.89 n.d. n.d. | 1.73 | 1/18 (1.58) |
| 29 | HMSALTLMGSRQRNSVA | QMTTREN | QQYDRLPLV | 0.26 0.75 0.69 0.41 0.58 0.99 | 0.61 | 0/18 |
| 30 | TISGVMQQMTHSKNNVA | EVSERLD | QQYFRLPLE | 0.68 0.14 0.14 0.46 0.01 0.29 | 0.29 | 0/18 |
| 31 | HIGLATMLEEYVRNSVA | NNSTREK | QQYDRLPLS | 2.07 2.36 2.46 1.65 2.43 n.d. | 2.19 | 0/18 |
| 32 | IVSQLMLWGMKAKNSIA | EAELRLN | QQYDRLPLF | n.d. n.d. n.d. n.d. n.d. n.d. | n.d. | 0/18 |
| 33 | KIGMTLNQLMHKKNNVA | DLVEREN | QQYFRLPLS | 0.37 1.04 0.55 0.35 0.29 0.60 | 0.54 | 0/18 |
| 34 | KLSGLMASSKFAKNSVA | ENNTRED | QQYERLPLS | 1.58 n.d. 1.94 2.36 2.75 4.24 | 2.57 | 1/18 (2.39) |
| 35 | IVSQLMLWGLHAKNSIA | EAEMRLN | QQYHRLPLF | n.d. n.d. n.d. n.d. 3.31 n.d. | 3.31 | 0/18 |
| 36 | MVSQLMVWGMHARNSIA | EAQTRIN | QQYDRLPLF | n.d. 1.48 1.22 2.50 0.87 3.16 | 1.85 | 0/18 |
| 37 | IVSQLMIWGMHVKNSIA | EAEIRLN | QQYDRLPLI | n.d. n.d. n.d. n.d. n.d. n.d. | n.d. | 0/18 |
| 38 | KIGDTLNQQMTKRNNVA | DLVMREN | QQYFRLPLS | 1.89 1.77 0.96 0.74 1.65 2.38 | 1.56 | 0/18 |
| 39 | TISQMTSLFEQSINNVA | EVSTREN | QQYDRLPLA | 1.47 1.08 1.24 1.20 1.33 1.01 | 1.22 | 0/18 |
| 40 | QLSMITGHMSVSKNNVA | EMETREN | QQYDRLPLS | 0.31 0.45 0.48 0.39 0.12 0.20 | 0.33 | 0/18 |

For reference, 4 entries of the list once more:

CDR-L1	CDR-L2	CDR-L3	log10 Kd, replicates	mean, log10 nM	signal with controls
TISGVMQQMTHSKNNVA	EVSERLD	QQYFRLPLE	0.68 0.14 0.14 0.46 0.01 0.29	0.29	0/18
TLYGLTNSMSKNKDNVA	EMSTREA	QQYDRLPLA	0.64 0.86 0.92 1.59 0.82 0.54	0.90	1/18 (1.70)
IVSQLMLWGMKAKNSIA	EAELRLN	QQYDRLPLF	n.d. n.d. n.d. n.d. n.d. n.d.	n.d.	0/18
KLSMTTEMEHKNRNSVA	ELVTRLN	QQYNRLPLS	n.d. n.d. n.d. n.d. n.d. n.d.	n.d.	0/18